The values below come from ChEMBL document CHEMBL1153301, “Identification and SAR of novel diaminopyrimidines. Part 1: The discovery of RO-4, a dual P2X(3)/P2X(2/3) antagonist for the treatment of pain” (Bioorg Med Chem Lett, 2009).

For this experiment, the target named is T1, P2X purinoceptor 3 (Rattus norvegicus, UniProt P49654).
T1 sequence (P49654 whole entry): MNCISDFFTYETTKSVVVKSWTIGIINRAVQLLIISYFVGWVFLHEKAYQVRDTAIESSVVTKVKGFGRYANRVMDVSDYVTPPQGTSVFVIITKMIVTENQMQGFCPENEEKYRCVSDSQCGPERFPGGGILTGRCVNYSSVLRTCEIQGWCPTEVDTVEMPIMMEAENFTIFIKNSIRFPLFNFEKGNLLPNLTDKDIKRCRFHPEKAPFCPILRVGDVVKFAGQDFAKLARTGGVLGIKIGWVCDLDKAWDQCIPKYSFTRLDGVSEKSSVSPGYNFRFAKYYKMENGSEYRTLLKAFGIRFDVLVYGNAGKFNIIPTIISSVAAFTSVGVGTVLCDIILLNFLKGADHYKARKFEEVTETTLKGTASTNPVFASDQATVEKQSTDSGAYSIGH
The experiment in a line: Antagonist activity at rat recombinant P2X3 receptor expressed in CHO cells by FLIPR assay.
Regarding `COc1cc(Cc2cnc(N)nc2N)c(C(C)C)cc1OC`, the 50% inhibitory concentration (IC50) was 0.126 µM.

Regarding `COc1cc(Cc2cnc(N)nc2N)c(C(C)(C)C)cc1OC`, the IC50 is over 10 µM.

`CCCc1cc(OC)c(OC)cc1Cc1cnc(N)nc1N`: the IC50 was over 10 µM.
